# Results reported in paper PMC3908673 (Bioorganic & medicinal chemistry, 2013).
# Molecular target: β2-AR (Homo sapiens, UniProt P07550)
# Format: binding
# Conditions: marker [3H]-CGP-12177
smiles,measurement,value
"C[C@H](Cc1ccc(O)cc1)NC[C@H](O)c1cc(O)cc(O)c1 [(R,R′)-1, (R,R′)-Fenoterol]","HS (Hill coefficient), displacement of [3H]-CGP-12177",0.92 ± 0.1
